Assays:
[1] = tested on: Escherichia coli; details: ATCC 25922
[2] = tested on: Escherichia coli; experiment: Antibacterial activity against non-gentamicin-resistant Escherichia coli clinical isolate after 18 hrs by agar dilution method; type: functional
[3] = tested on: Morganella morganii; experiment: Antibacterial activity against non-gentamicin-resistant Morganella morganii clinical isolate after 18 hrs by agar dilution method; type: functional

GENTAMICIN
0.5 µg/mL: MIC [1] | MIC50 [2] | MIC50 [3]
